According to US20240293588A1, “THERAPEUTIC CONJUGATES” (Starpharma Pty Ltd, priority 2020, published 2024):

Assays:
Type in all cases: cell-based
MDA-MB-231 cells = test: GI50 panel (MTT assay), MDA-MB-231; conditions: MDA-MB-231, MTT
OE-19 cells = test: GI50 panel (MTT assay), OE19
NCI-N87 cells = test: GI50 panel (MTT assay), NCI-N87
SK-Br-3 cells = test: GI50 panel (MTT assay), SK-BR-3; conditions: SK-BR-3, MTT
SKOV-3 cells = test: GI50 panel (MTT assay), SKOV-3; conditions: SKOV-3, MTT
[1] = 72 h, Kadcyla based on estimated weight ADC, footnote: based on MMAE drug equivalents

Substance	GI50 (MDA-MB-231 cells; [1]) [nM]	GI50 (OE-19 cells; [1]) [nM]	GI50 (NCI-N87 cells; [1]) [nM]	GI50 (SK-Br-3 cells; [1]) [nM]	GI50 (SKOV-3 cells; [1]) [nM]	% growth inhibition (MDA-MB-231 cells; six days for Herceptin, n = 3) [%]	% growth inhibition (OE-19 cells; six days for Herceptin, n = 3) [%]	% growth inhibition (NCI-N87 cells; six days for Herceptin, n = 3) [%]	% growth inhibition (SK-Br-3 cells; six days for Herceptin, n = 3) [%]	% growth inhibition (SKOV-3 cells; six days for Herceptin, n = 3) [%]
Kadcyla: marketed comparator; GI50 based on estimated weight ADC	22.9	0.06	0.1	0.04	50.7					
Trastuzumab [Herceptin]						1.7	62	52	51	10
